Results reported in patent US9587005B2 (priority 2010, dated 2017).
pEC50: −log10 of the molar value.

Amino acid sequences for entries named in this document (tags omitted). Residues count along the entry.
UniProt P43220, 24-463: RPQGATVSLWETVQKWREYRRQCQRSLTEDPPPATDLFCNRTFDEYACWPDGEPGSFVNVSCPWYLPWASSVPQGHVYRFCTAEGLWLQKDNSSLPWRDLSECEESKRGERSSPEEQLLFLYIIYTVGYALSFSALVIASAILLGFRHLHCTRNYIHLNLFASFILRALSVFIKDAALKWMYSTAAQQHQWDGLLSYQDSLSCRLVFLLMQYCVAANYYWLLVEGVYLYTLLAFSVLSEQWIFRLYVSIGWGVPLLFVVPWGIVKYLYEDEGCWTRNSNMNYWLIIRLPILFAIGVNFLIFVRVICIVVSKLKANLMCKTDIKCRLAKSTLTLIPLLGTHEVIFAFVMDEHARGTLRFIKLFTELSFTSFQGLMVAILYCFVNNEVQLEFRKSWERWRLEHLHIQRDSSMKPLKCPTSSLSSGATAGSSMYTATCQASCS
UniProt P47871, 26-477: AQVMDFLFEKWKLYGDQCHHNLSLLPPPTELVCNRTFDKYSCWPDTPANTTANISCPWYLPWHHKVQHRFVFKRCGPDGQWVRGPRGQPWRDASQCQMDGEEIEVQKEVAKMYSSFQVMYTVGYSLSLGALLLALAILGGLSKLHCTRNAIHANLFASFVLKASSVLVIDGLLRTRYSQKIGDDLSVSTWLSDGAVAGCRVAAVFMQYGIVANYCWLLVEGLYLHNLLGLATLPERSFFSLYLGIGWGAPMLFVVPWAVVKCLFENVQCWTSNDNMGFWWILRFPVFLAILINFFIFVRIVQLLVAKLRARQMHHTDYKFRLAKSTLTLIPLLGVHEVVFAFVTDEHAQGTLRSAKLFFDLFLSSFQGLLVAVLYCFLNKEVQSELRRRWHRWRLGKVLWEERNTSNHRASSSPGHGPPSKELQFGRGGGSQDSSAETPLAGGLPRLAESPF

Tests used:
Assay type in all cases: cell-based
GLP-1 receptor = target: T1, GLP-1 receptor (Homo sapiens, UniProt P43220); assay: cAMP induction, firefly luciferase reporter assay in HEK293 cells co-transfected with GLP-1 receptor
T1 construct: expressed in transfected cells; host or cells: HEK293
From the text: (§1) This example describes an exemplary method of testing the biological activity of the peptides of the present disclosures, which method involves assaying cAMP synthesis.

GIP receptor = target: T2, GIP receptor (Homo sapiens, UniProt P48546); assay: cAMP induction, firefly luciferase reporter assay in HEK293 cells co-transfected with GIP receptor
T2 sequence (P48546 22-466): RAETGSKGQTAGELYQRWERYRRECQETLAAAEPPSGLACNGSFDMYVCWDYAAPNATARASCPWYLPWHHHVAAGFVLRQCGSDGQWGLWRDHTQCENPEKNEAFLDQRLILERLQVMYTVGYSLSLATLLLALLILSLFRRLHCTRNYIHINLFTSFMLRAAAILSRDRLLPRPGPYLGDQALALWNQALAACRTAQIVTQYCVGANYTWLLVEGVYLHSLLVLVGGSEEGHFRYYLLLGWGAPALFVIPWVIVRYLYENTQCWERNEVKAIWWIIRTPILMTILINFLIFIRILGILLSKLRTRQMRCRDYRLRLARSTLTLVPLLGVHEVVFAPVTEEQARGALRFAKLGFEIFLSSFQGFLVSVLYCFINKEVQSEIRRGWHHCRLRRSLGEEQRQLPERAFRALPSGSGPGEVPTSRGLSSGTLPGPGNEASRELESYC

glucagon receptor = target: T3, glucagon receptor (Homo sapiens, UniProt P47871); assay: cAMP induction, firefly luciferase reporter assay in HEK293 cells co-transfected with glucagon receptor
T3 construct: expressed in transfected cells; host or cells: HEK293
From the text: as §1

| SMILES | pEC50 (GLP-1 receptor; GLP-1 Receptor EC50, Table 10, Example 16) | pEC50 (GIP receptor; GIP-1 Receptor EC50, Table 10, Example 16) | pEC50 (glucagon receptor) | pEC50 (GLP-1 receptor; GLP-1 Receptor (EC50), Table 13, Example 20) | pEC50 (GIP receptor; GIP Receptor (EC50), Table 13, Example 20) |
| --- | --- | --- | --- | --- | --- |
| CCCCCCCCCCCCCCCC(=O)N[C@@H](CCC(=O)Nc1ccc(C[C@H](NC(=O)[C@H](CC(=O)O)NC(=O)[C@H](CO)NC(=O)[C@@H](NC(=O)[C@H](Cc2ccccc2)NC(=O)[C@@H](NC(=O)CNC(=O)[C@H](CCC(N)=O)NC(=O)C(C)(C)NC(=O)[C@@H](N)Cc2c[nH]cn2)[C@@H](C)O)[C@@H](C)O)C(=O)N[C@@H](CO)C(=O)N[C@@H](CCCCN)C(=O)N[C@@H](Cc2ccc(O)cc2)C(=O)N[C@@H](CC(C)C)C(=O)N[C@@H](CC(=O)O)C(=O)N[C@@H](CCC(=O)O)C(=O)N[C@@H](CCCNC(=N)N)C(=O)N[C@@H](C)C(=O)N[C@@H](C)C(=O)N[C@@H](CCC(N)=O)C(=O)N[C@@H](CC(=O)O)C(=O)N[C@@H](Cc2ccccc2)C(=O)N[C@H](C(=O)N[C@@H](CCC(N)=O)C(=O)N[C@@H](Cc2c[nH]c3ccccc23)C(=O)N[C@@H](CC(C)C)C(=O)N[C@@H](CC(C)C)C(=O)N[C@@H](CC(=O)O)C(=O)NCC(=O)NCC(=O)N2CCC[C@H]2C(=O)N[C@@H](CO)C(=O)N[C@@H](CO)C(=O)NCC(=O)N[C@@H](C)C(=O)N2CCC[C@H]2C(=O)N2CCC[C@H]2C(=O)N2CCC[C@H]2C(=O)N[C@@H](CO)C(N)=O)C(C)C)cc1)C(=O)O [SEQ ID NO: 148] | 11.05 | 11.05 | 11.10 |  |  |
| CCCCCCCCCCCCCCC(SC[C@H](NC(=O)[C@H](CO)NC(=O)[C@@H]1CCCN1C(=O)[C@@H]1CCCN1C(=O)[C@@H]1CCCN1C(=O)[C@H](C)NC(=O)CNC(=O)[C@H](CO)NC(=O)[C@H](CO)NC(=O)[C@@H]1CCCN1C(=O)CNC(=O)CNC(=O)[C@H](CC(=O)O)NC(=O)[C@H](CC(C)C)NC(=O)[C@H](CC(C)C)NC(=O)[C@H](Cc1c[nH]c2ccccc12)NC(=O)[C@H](CCC(N)=O)NC(=O)[C@@H](NC(=O)[C@H](Cc1ccccc1)NC(=O)[C@H](CC(=O)O)NC(=O)[C@H](CCC(N)=O)NC(=O)[C@H](C)NC(=O)[C@H](C)NC(=O)[C@H](CCCNC(=N)N)NC(=O)[C@H](CCC(=O)O)NC(=O)[C@H](CC(=O)O)NC(=O)[C@H](CC(C)C)NC(=O)[C@H](Cc1ccc(O)cc1)NC(=O)[C@H](CCCCN)NC(=O)[C@H](CO)NC(=O)[C@H](Cc1ccc(O)cc1)NC(=O)[C@H](CC(=O)O)NC(=O)[C@H](CO)NC(=O)[C@@H](NC(=O)[C@H](Cc1ccccc1)NC(=O)[C@@H](NC(=O)CNC(=O)[C@H](CCC(N)=O)NC(=O)C(C)(C)NC(=O)[C@@H](N)Cc1c[nH]cn1)[C@@H](C)O)[C@@H](C)O)C(C)C)C(N)=O)C(=O)O (stereo partly drawn) [SEQ ID NO: 164] |  |  | 11.22 | 11.52 | 10.55 |
